Laboratory results as given in publication PMC5984341.

Protein sequences, listed by entry. Tags and fused reporters are not part of them. Chains listed by the source or under a name are the forms on record and can include a tag or linker.
UniProt P10636, other isoform, or with tags, fused parts or gaps C291A | C322A | C291A C322A: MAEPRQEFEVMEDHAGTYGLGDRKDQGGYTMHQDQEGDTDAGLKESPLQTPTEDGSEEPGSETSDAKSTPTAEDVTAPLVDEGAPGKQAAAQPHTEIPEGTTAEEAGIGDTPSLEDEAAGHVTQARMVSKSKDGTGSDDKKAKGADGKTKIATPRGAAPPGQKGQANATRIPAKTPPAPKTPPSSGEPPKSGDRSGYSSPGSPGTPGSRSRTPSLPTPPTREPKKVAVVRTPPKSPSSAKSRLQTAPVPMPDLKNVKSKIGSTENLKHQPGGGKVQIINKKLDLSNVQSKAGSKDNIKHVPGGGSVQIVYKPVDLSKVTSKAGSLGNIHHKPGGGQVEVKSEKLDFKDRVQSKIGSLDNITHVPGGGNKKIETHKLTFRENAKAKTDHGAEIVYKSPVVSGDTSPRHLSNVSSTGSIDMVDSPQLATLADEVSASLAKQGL

Assays:
[1] = target: cognate tau peptide of CBTAU-27.1 (not named for ITC and Octet) (human); assay: ITC; in solution, MicroCal Auto-iTC200; peptide ~10-35 μM, antibody 130-205 μM; fit to a single set of sites, antibody:tau peptide = 1:2
[2] = target: recombinant tau (rtau), human tau-441 isoform (2N4R) with C291A and C322A (human) (UniProt P10636); assay: SEC-MALS; 15 μM monomer rtau incubated with dmCBTAU-27.1 at rtau:IgG1 = 1:0.6 for 15 min, centrifuged 15 min at 20,000 g; TSKgel G3000SWxl, 150 mM sodium phosphate, 50 mM NaCl, pH 7.0
[3] = target: cognate tau peptide of CBTAU-28.1 (not named for ITC and Octet) (human); assay: ITC; in solution, MicroCal Auto-iTC200; peptide ~10-35 μM, antibody 130-205 μM; fit to a single set of sites, antibody:tau peptide = 1:2

| Substance | fold improvement in affinity over CBTAU-27.1 [1] [fold] | stoichiometry N (tau monomers per antibody) [2] | fold improvement in affinity over CBTAU-28.1 [3] [fold] |
| --- | --- | --- | --- |
| dmCBTAU-27.1 (human IgG1), CBTAU-27.1 double mutant Ser27D to Tyr / Thr94 to Ile (antibody) | > 50 | 2 |  |
| dmCBTAU-28.1 (human IgG1), CBTAU-28.1 double mutant Ser32 to Arg / Glu35 to Lys (antibody) |  |  | 4 |
